Literature values, collected in US11944600B2, “Use of cannabinoids in the treatment of a neurodegenerative disease or disorder” (priority 2017, dated 2024).

System: ALS patients
Conditions: cited from earlier work

In the case of `Nc1nc2ccc(OC(F)(F)F)cc2s1` [riluzole], the increase in survival is listed as “approximately two to three”.
